ERp5 inh – blocks human ERp5 reductase activity on insulin. ERp5 insulin aggregation, absorbance 650 nm, 90 min. inhibition, % at 9.99 µM. 350,000 compounds, 0.05% hits. AID 651711;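 active = mean replicate inhibition above about 25%, with every replicate also reaching it, limit read from the data, passing the limit was not always enough; inconclusive = only one of those two criteria met; inactive = neither criterion met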
S100A4 MyoIIA – S100A4-myosin IIA interaction inhibition; 360,000 compounds, 0.14% hits; S100A4/TAMRA-MyoIIA peptide fluorescence polarization; inhibition, % at 10.7 µM; P26447;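 active = mean inhibition of at least 70% across replicates, with every replicate also reaching that level; inconclusive = mean inhibition reaches 70% but some replicates fall short; inactive = mean inhibition below 70%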
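Material: S100A4 monomer protein / Buffer or medium: 50 mM HEPES pH 7.2, 10 mM CaCl2, 100 mM KCl / Times: 5 min incubation before reading / Benchmarks: neutral control DMSO, positive control TFP / Reagent: labelled myosin peptide probe, 5 nM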
UUG fidelity – modulators of start codon recognition fidelity in yeast | S. cerevisiae UUG-firefly luciferase reporter, luminescence/redox ratio | activity score, % at 18.7 µM | 350,000 tested, 0.13% active;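 active = replicate mean at a twofold rise or more, about +100% in these data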;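 also: firefly luciferase made from a UUG start codon reports start codon fidelity; reporter light over untreated wells divided by growth signal over untreated wells; some hits fall short of that in this replicate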
SIRT5 block – sirtuin-5 (human) deacylase inhibition; Q9NXA8; Purified SirT5, succinyl-peptide AMC, trypsin-coupled fluorescence; inhibition, % at 15 µM; 330,000 compounds, 1.1% hits; AID 652115; in the data active = inhibition above about 15%; inconclusive = no clear call, values can overlap the other calls
PDI turbidity – blocks human protein disulfide isomerase activity; P07237; PDI insulin aggregation turbidity, A650, 90 min; inhibition, % at 10 µM; 350,000 compounds, 0.052% hits; AID 588391;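 active = mean inhibition across replicates of 30% or more, whatever share of single replicates reach that level; inconclusive = mean inhibition below 30% while every single replicate reaches 30%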
FGF22 binding – FGF22 (human) thermal shift binding. AID 651658. 340,000 compounds, 1.5% hits. activity (Tm shift, normalised), % at 9.99 µM. recombinant FGF22 thermal shift, SYPRO orange fluorescence; percent of sucrose octasulfate shift, DMSO zero. Q9HCT0;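 active = mean Tm shift, scaled 0 neutral to 100 positive control, at about 1.3% or above, every replicate too, limit read from the data; inconclusive = no clear call, values can overlap the other calls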
* marks the source's active call; other numbers are inactive results; ? = inconclusive; nt = not tested or not shown. Hits are enriched below; roughly 2.2% of the tested compounds scored in any of these assays.

1. C[C@@H]1CN([C@@H](C)CO)C(=O)c2cccc(NC(=O)c3ccc(-c4nccs4)cc3)c2O[C@@H]1CN(C)Cc1ccc(C(F)(F)F)cc1
2. CN(C)C(=O)c1cccc(-c2ccc3c(c2)[C@@H]2[C@@H](CCN2C(=O)C2CCCCC2)[C@H](CO)N3)c1
3. Cc1noc(C)c1S(=O)(=O)Nc1ccc2c(c1)C(=O)N([C@@H](C)CO)C[C@@H](C)[C@@H](CN(C)C(=O)Cc1ccccc1)OCCCC[C@@H](C)O2
4. CCc1ccc(Nc2ccc(C(=O)O)cc2[N+](=O)[O-])cc1
5. CCc1ccc(Nc2ccc(C(N)=O)cc2[N+](=O)[O-])cc1

compound no. | 1 | 2 | 3 | 4 | 5
ERp5 inh | -1 | nt | 7 | 0 | -2
S100A4 MyoIIA | -4 | nt | 6 | -14 | -5
UUG fidelity | -2 | -5 | 11 | nt | nt
SIRT5 block | 26* | nt | 1 | -1 | 1
PDI turbidity | nt | nt | nt | -1 | -2
FGF22 binding | -1 | nt | -1 | 0 | 44*

6. O=C(c1ccc(Cl)cc1[N+](=O)[O-])N1CCc2ccccc2C1
7. O=C(Nc1ccc2c(c1)OCCO2)C(c1ccnc2ccccc12)N1CCN(c2ccc(F)cc2)CC1 (stereo not drawn)
8. CO[C@H]1CN(C)C(=O)c2ccc(NC(=O)c3ccc(F)cc3)cc2OC[C@H](C)N(C)C[C@@H]1C
9. COC1CCN(C(=O)CC2C(=O)NCCN2CC2CCCCC2)CC1 (stereo not drawn)
10. COC1CCN(C(=O)CC2C(=O)NCCN2CC(C)(C)C)CC1 (stereo not drawn)

compound no. | 6 | 7 | 8 | 9 | 10
ERp5 inh | 1 | 3 | 3 | -1 | 0
S100A4 MyoIIA | 5 | -6 | -12 | 2 | 2
UUG fidelity | nt | -11 | nt | nt | nt
SIRT5 block | 1 | 29* | -1 | 1 | -3
PDI turbidity | -6 | nt | nt | -6 | 12
FGF22 binding | 43* | 0 | 0 | 43* | 0

11. O=[N+]([O-])c1cc(Cl)ccc1N1CCCC1
12. O=[N+]([O-])c1cc(Cl)ccc1N1CCOCC1
13. COc1ccc(Cc2c(C(C)(C)C)nc3c(C)cc(Br)cn23)c(C)c1
14. CCCNC(=O)c1cc2c(c(-c3cccc(-c4cccc(F)c4)c3)n1)[C@H](CCO)N([S@@](=O)C(C)(C)C)C2
15. Cc1ccc(NC(=O)Nc2ccc3c(c2)C(=O)N(C)[C@H]2CC[C@@H](CC(=O)O)O[C@@H]2CO3)cc1

compound no. | 11 | 12 | 13 | 14 | 15
ERp5 inh | -6 | 7 | 1 | -3 | -3
S100A4 MyoIIA | -4 | -1 | -1 | -18 | 2
UUG fidelity | -8 | -27 | 42 | nt | 6
SIRT5 block | 0 | -7 | 0 | 4 | 1
PDI turbidity | -8 | -8 | nt | nt | nt
FGF22 binding | 44* | 0 | 44* | 0 | 0

16. Fc1ccc(N2CCN(Cc3ccccn3)CC2)cc1
17. CC(=O)Nc1ccc(S(=O)(=O)N2CCN(Cc3ccccc3[N+](=O)[O-])CC2)cc1
18. Fc1ccc(N2CCN(Cc3cnc(N4CCOCC4)s3)CC2)cc1
19. O=[N+]([O-])c1ccccc1CN1CCN(Cc2ccccn2)CC1
20. c1ccc(CN2CCOCC2)nc1

compound no. | 16 | 17 | 18 | 19 | 20
ERp5 inh | 8 | 0 | -1 | -2 | 5
S100A4 MyoIIA | -4 | -27 | -3 | 10 | 6
UUG fidelity | nt | nt | nt | nt | nt
SIRT5 block | -4 | 0 | -3 | 3 | nt
PDI turbidity | -7 | -1 | 8 | 0 | 10
FGF22 binding | 44* | 44* | 43* | 43* | 0

21. CC(=O)Nc1ccc(S(=O)(=O)N2CCN(Cc3ccccn3)CC2)cc1
22. COc1cccc(S(=O)(=O)Nc2ccc3c(c2)C(=O)N(C)[C@H]2CC[C@H](CC(=O)Nc4ccc(C(C)C)cc4)O[C@@H]2CO3)c1
23. CCS(=O)(=O)Nc1ccc2c(c1)C(=O)N(C)C[C@@H](OC)[C@@H](C)CN(Cc1ccccn1)[C@@H](C)CO2
24. Cn1c(=S)[nH]c(=O)c2ncc(=O)[nH]c21
25. O=C(C[C@H]1CC[C@H](NS(=O)(=O)c2ccc(F)cc2)[C@H](CO)O1)NC1CCC1

compound no. | 21 | 22 | 23 | 24 | 25
ERp5 inh | nt | -2 | 2 | 0 | 13
S100A4 MyoIIA | nt | -13 | ? | -8 | -1
UUG fidelity | -14 | nt | nt | nt | -3
SIRT5 block | nt | 8 | 2 | 1 | -3
PDI turbidity | 0 | nt | nt | -4 | nt
FGF22 binding | nt | 0 | 0 | 44* | 0

26. COc1ccccc1-c1ccc([C@H]2[C@@H](CO)N(C(=O)C3CCCC3)[C@H]2C#N)cc1
27. C[C@H](CO)N1C[C@H](C)[C@@H](CN(C)C(=O)CCC(F)(F)F)OCCCC[C@H](C)Oc2ccc(NC(=O)CCCN(C)C)cc2C1=O
28. COC(=O)c1c(C(C)=O)c(C)n(C)c1C
29. COC(=O)Cn1c(C)c(C(C)=O)c(C(C)=O)c1C
30. CC[C@]12c3[nH]c4ccccc4c3CCN1C(=O)C(CC(=O)NC/C=C(\C)CCC=C(C)C)C[C@@H]2C(=O)N1CCN(C(=O)c2ccco2)CC1 (stereo partly drawn)

compound no. | 26 | 27 | 28 | 29 | 30
ERp5 inh | -2 | nt | 4 | -4 | 0
S100A4 MyoIIA | 1 | nt | 3 | -3 | 3
UUG fidelity | nt | 16 | nt | -12 | -8
SIRT5 block | -3 | nt | 16* | -5 | 16*
PDI turbidity | nt | nt | 10 | 1 | 25
FGF22 binding | nt | 0 | 0 | nt | 0

31. CC[C@]12c3[nH]c4cc(-c5ccco5)ccc4c3CCN1C(=O)[C@@H](CC(=O)NC/C=C(\C)CCC=C(C)C)C[C@@H]2C(=O)N1CCN(C(=O)c2ccco2)CC1
32. C[C@@H]1CN([C@H](C)CO)C(=O)c2cc(NS(=O)(=O)c3ccccc3)ccc2O[C@@H](C)CCCCO[C@@H]1CN(C)C
33. C/C(=N\NC(=O)C1CC1(c1ccccc1)c1ccccc1)c1cccc([N+](=O)[O-])c1 (stereo not drawn)
34. C/C(=N\NC(=O)C1CC1c1ccccc1)c1cccc([N+](=O)[O-])c1 (stereo not drawn)
35. O=C(Nc1ccc2nn(-c3ccc(F)cc3)nc2c1)c1cccnc1

compound no. | 31 | 32 | 33 | 34 | 35
ERp5 inh | nt | 0 | 0 | nt | 5
S100A4 MyoIIA | nt | 31 | -3 | nt | 0
UUG fidelity | -3 | 20 | -7 | -15 | nt
SIRT5 block | nt | 1 | 15* | nt | -7
PDI turbidity | 22 | nt | -2 | 3 | 1
FGF22 binding | nt | 0 | 0 | nt | 44*

36. O=C(Nc1ccc2nn(-c3ccccc3)nc2c1)c1cccnc1
37. CCCOc1ccc(C(=O)Nc2ccc(CN3CCOCC3)cc2)cc1
38. CCCCOc1ccc(C(=O)Nc2ccc(CN3CCOCC3)cc2)cc1
39. O=C(NC(=S)Nc1cc(S(=O)(=O)N2CCOCC2)ccc1O)c1ccco1
40. O=C(NC(=S)Nc1cc(S(=O)(=O)N2CCOCC2)ccc1N1CCOCC1)c1ccco1

compound no. | 36 | 37 | 38 | 39 | 40
ERp5 inh | nt | 0 | 1 | -1 | -5
S100A4 MyoIIA | nt | 0 | 9 | 0 | -3
UUG fidelity | -23 | -1 | 5 | -12 | nt
SIRT5 block | nt | 9 | 29* | 1 | 4
PDI turbidity | -13 | -12 | 2 | -1 | 1
FGF22 binding | nt | 0 | 0 | 5.5* | 0

41. C[C@@H]1CN([C@@H](C)CO)C(=O)c2cc(NC(=O)Nc3ccc(F)cc3)ccc2O[C@@H]1CN(C)Cc1ccncc1
42. O=C(NCC[C@@H]1CC[C@@H](NS(=O)(=O)c2ccccc2)[C@H](CO)O1)c1ccccc1F
43. CC1=C(C(=O)N(C(C)C)C(C)C)CC(CC(=O)NC2CCCC2)C(=O)N1CCCN1CCCC1=O (stereo not drawn)
44. CC1=C(C(=O)N(C)C)CC(CC(=O)NCCN2CCOCC2)C(=O)N1CCCN1CCCC1=O (stereo not drawn)

compound no. | 41 | 42 | 43 | 44
ERp5 inh | 1 | -3 | 7 | 3
S100A4 MyoIIA | 9 | 10 | 1 | -2
UUG fidelity | -9 | 4 | 6 | 52
SIRT5 block | 3 | 10 | -5 | -2
PDI turbidity | nt | nt | nt | nt
FGF22 binding | -1 | 0 | 0 | 0

A draw from above in order of molecular weight, low to high:
39. O=C(NC(=S)Nc1cc(S(=O)(=O)N2CCOCC2)ccc1O)c1ccco1
40. O=C(NC(=S)Nc1cc(S(=O)(=O)N2CCOCC2)ccc1N1CCOCC1)c1ccco1
43. CC1=C(C(=O)N(C(C)C)C(C)C)CC(CC(=O)NC2CCCC2)C(=O)N1CCCN1CCCC1=O (stereo not drawn)

compound no. | 39 | 40 | 43
ERp5 inh | -1 | -5 | 7
S100A4 MyoIIA | 0 | -3 | 1
UUG fidelity | -12 | nt | 6
SIRT5 block | 1 | 4 | -5
PDI turbidity | -1 | 1 | nt
FGF22 binding | 5.5* | 0 | 0
